{
  "source": "ChEMBL document CHEMBL4138209",
  "about": "“Inhibitory effects and structural insights for a novel series of coumarin-based compounds that selectively target human CA IX and CA XII carbonic anhydrases” (Eur J Med Chem, 2018)",
  "key": {"Carbonic anhydrase 2": {"biological_target": "Carbonic anhydrase 2 (Homo sapiens, UniProt P00918)", "test": "Inhibition of human carbonic anhydrase 2 incubated for 15 mins prior to testing by stopped-flow CO2 hydration assay"}, "Carbonic anhydrase 9": {"biological_target": "Carbonic anhydrase 9 (Homo sapiens, UniProt Q16790)", "test": "Inhibition of human carbonic anhydrase 9 incubated for 15 mins prior to testing by stopped-flow CO2 hydration assay"}},
  "data": [
    {"smiles": "O=c1ccc2ccc(O)cc2o1", "note": "[UMBELLIFERONE]", "values": [
      {"measurement": "Ki", "setting": "Carbonic anhydrase 2", "value": "> 10000", "unit": "nM"},
      {"measurement": "Ki", "setting": "Carbonic anhydrase 9", "value": 24.9, "unit": "nM"}
    ]}
  ]
}
